Experimental data from ChEMBL document CHEMBL5625257, “Design, synthesis, and evaluation of dual EGFR/AURKB inhibitors as anticancer agents for non-small cell lung cancer” (Bioorg Med Chem Lett, 2024).
Blank lines part the entries; values can stand above or below the compound they belong to. Activity calls are given as the source filed them. No cut-off for these calls is given here.

Protein sequences, listed by entry. Tags and fused reporters are not part of them. Lines headed by an entry give the natural chain unless they say otherwise; changes in a name come on top.
UniProt O00750: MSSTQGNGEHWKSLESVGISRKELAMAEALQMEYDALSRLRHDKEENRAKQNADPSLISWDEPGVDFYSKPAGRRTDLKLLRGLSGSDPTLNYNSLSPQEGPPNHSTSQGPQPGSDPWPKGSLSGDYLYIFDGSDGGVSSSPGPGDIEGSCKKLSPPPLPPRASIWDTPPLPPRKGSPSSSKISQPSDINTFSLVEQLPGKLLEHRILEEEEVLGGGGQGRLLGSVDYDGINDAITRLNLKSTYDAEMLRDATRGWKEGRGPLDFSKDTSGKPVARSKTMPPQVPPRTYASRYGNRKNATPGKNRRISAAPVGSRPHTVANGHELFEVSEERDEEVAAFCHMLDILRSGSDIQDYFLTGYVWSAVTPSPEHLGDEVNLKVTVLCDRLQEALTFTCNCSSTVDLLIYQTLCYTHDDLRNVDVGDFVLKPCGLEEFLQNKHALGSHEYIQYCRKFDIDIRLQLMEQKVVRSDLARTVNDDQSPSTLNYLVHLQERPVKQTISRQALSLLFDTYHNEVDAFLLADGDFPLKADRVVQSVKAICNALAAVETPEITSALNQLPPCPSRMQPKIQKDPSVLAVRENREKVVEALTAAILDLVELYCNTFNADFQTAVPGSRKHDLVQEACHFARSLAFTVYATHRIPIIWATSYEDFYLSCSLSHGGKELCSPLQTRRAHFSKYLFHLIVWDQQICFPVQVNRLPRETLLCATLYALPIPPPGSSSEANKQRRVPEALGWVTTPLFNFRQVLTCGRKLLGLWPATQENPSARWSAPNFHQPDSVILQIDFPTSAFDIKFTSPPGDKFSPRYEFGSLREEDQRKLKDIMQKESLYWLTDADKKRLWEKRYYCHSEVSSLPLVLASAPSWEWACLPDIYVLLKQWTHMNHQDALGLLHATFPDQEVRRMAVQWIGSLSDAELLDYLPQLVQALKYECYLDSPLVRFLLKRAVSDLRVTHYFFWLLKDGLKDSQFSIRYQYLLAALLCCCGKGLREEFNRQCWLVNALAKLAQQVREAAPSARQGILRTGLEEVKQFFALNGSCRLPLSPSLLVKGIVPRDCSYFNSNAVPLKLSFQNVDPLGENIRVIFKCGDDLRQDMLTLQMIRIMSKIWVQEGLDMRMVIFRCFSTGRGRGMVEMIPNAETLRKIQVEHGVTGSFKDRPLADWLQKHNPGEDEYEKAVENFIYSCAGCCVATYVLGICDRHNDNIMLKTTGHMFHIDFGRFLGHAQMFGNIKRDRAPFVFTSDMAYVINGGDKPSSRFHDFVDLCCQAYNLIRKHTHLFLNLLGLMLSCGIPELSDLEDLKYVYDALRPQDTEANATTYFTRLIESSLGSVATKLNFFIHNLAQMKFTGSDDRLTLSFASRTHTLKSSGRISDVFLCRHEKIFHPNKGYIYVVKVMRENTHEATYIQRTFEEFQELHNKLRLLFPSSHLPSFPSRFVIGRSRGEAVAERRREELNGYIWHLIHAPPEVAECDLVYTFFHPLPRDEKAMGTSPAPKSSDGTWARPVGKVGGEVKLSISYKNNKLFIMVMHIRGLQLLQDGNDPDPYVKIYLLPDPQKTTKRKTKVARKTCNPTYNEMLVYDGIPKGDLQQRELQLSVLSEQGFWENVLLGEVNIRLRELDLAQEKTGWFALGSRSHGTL
UniProt P36888, whole entry: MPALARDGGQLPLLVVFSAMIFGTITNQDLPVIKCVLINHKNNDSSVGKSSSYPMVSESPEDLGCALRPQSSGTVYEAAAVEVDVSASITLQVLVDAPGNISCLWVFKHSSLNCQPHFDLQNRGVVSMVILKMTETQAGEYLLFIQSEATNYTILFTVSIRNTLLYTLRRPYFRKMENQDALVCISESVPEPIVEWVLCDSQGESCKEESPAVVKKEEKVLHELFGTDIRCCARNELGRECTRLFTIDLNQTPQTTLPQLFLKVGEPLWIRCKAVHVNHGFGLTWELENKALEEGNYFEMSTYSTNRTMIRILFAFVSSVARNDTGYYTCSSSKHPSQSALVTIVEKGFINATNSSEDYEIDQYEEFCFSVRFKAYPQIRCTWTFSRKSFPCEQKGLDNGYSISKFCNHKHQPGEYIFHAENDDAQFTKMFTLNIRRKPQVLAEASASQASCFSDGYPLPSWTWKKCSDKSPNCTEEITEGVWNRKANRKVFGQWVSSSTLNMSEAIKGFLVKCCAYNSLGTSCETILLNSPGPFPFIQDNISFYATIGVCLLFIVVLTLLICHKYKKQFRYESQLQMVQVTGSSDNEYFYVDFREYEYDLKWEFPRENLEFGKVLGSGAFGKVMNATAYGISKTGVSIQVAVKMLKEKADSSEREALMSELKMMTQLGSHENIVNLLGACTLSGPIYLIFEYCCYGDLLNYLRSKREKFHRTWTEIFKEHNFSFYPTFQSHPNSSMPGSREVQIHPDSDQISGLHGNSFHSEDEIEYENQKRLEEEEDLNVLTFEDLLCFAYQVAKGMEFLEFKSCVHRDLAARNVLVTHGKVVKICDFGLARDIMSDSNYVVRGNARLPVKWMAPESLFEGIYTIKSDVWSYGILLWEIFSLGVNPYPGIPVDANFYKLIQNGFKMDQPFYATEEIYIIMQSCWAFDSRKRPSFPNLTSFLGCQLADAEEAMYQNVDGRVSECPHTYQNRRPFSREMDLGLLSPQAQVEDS

Columns and labels:
[1] = target: Phosphatidylinositol 4-phosphate 3-kinase C2 domain-containing subunit beta (Homo sapiens) (UniProt O00750); test: Inhibition of human PI3KC2B at 1 uM relative to control
[2] = target: T1, Bone morphogenetic protein receptor type-2 (Homo sapiens) (UniProt Q13873); test: Inhibition of human BMPR2 at 1 uM relative to control
T1 sequence (whole entry): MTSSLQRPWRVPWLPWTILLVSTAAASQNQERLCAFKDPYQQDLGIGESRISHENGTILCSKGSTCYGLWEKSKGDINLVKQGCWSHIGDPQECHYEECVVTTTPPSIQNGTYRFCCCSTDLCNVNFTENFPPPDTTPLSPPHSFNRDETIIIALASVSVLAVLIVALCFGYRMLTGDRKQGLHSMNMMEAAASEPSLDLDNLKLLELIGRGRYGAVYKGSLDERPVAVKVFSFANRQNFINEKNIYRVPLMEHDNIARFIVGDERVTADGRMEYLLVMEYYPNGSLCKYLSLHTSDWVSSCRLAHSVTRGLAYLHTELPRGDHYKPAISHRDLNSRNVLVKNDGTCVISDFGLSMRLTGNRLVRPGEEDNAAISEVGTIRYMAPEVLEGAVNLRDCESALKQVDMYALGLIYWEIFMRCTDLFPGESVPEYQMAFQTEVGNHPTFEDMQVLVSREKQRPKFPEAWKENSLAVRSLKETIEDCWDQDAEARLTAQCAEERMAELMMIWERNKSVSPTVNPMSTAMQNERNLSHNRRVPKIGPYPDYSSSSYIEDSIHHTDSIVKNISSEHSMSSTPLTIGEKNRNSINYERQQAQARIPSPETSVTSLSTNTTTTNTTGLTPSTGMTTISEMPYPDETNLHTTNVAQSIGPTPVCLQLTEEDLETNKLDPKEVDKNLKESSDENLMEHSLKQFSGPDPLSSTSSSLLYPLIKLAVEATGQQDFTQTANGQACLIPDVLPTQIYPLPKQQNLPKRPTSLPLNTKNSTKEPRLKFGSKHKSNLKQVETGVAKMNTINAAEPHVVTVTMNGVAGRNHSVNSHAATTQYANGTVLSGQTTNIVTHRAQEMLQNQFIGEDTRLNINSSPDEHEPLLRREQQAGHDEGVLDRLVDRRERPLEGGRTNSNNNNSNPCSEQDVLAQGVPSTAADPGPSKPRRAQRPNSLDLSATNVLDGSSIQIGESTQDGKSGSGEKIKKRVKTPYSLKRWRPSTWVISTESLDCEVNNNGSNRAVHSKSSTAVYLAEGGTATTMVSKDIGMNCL

MDA-MB-468 = test: Anticancer activity against human MDA-MB-468 cells assessed as inhibition of cell growth; format: functional, cell-based
[3] = target: Receptor-type tyrosine-protein kinase FLT3 (Homo sapiens) (UniProt P36888); test: Inhibition of human FLT3 at 1 uM relative to control
NCI-H226 = test: Anticancer activity against human NCI-H226 cells expressing KRAS mutant assessed as inhibition of cell growth; format: functional, cell-based
Hs-578T = test: Anticancer activity against human Hs-578T cells assessed as inhibition of cell growth; format: functional, cell-based
SNB-75 = test: Anticancer activity against human SNB-75 cells assessed as inhibition of cell growth; format: functional, cell-based
[4] = tested on: Epidermal growth factor receptor (Homo sapiens), P00533 [L858R]

- inhibition [1]: 74%
Compound: O=C(Nc1ccccc1)c1ccc(Nc2ncnc3[nH]ccc23)cc1

- inhibition [2]: 97%
Compound: O=S(=O)(Nc1ccc(Nc2ncnc3[nH]ccc23)cc1)c1ccccc1

Compound: Cn1nccc1-c1cc2c(Nc3ccc(OCc4ccccc4)cc3)ncnc2[nH]1
- Activity (MDA-MB-468): Active
- inhibition [3]: 75%
- Activity (NCI-H226): Active
- Activity (Hs-578T): Active
- Activity (SNB-75): Active
- Ratio [4]: 4
